The values below come from US8906672B2, “Gradient injection for biosensing” (Flir Systems, Inc., priority 2007, dated 2014).

The target in the assay is anti-IL-2 antibody. Briefly: SPR biosensor sigmoidal gradient injection of IL-2 over a surface coated with anti-IL-2 antibody, kinetic model fit. Format: binding. The conditions noted are these: single sigmoidal gradient injection, 125 μL at 25 μL/min. The source says: An example of one type of algorithm for determining kinetic constants is the conventional two-compartment interaction model given by the following set of differential equations. These equations are solved by numerical integration, or by finding an exact analytical solution, and then applying non-linear curve fitting to find the optimum parameter values. A=Conc A0=0 dA/dt=kt*(Conc−A)−(ka*A*B−kd*AB) B0=Rmax dB/dt=−(ka*A*B−kd*AB) AB0=0 dAB/dt=(ka*A*B−kd*AB) Total response: AB+RI where A=analyte concentration at surface
Next will be described the application of the invention as applied to kinetic analysis of the interaction of IL-2 with anti-IL2 antibody immobilized on the sensing surface. A sucrose gradient is prepared and injected, which gradient is of known refractive index using the same gradient preparation and injection parameters as are to be used for the actual analyte gradient injection. The optical biosensor responds to the changing bulk refractive index along the gradient giving a typical sigmoidal response curve 30 as shown in FIG. 5. The sigmoidal model [i.e. G=Rhi−((Rhi−Rlo)/(1+(t/A)^B))] is fitted to this curve 32 as shown by curve 34 in FIG. 7. All parameters are obtained from the model fit giving Rhi=1.016, Rlo=−0.2271, A=77.75 and B=0.009097. Thus the function G now defines the exact gradient profile for the gradient injection and is used to define the concentration of analyte in an analyte gradient prepared and injected in the same way. The two-compartment model as defined earlier is then fitted. Alternatively a simple model may be fitted as mass transport limitation is not as significant when a non-steady state concentration of analyte is present at the sensing surface. Therefore the simple model can be written as follows. […]
The experimental binding response curve shown in FIG. 8 is for the injection of a sigmoidal gradient of interleukin 2 (IL-2) over a surface coated with anti-IL-2 antibody (i.e. ligand). […] These values are in agreement with interaction constants determined by conventional kinetic analysis employing multiple fixed concentration injections.
On the technique in general: In SPR one partner is held on a chip, and binding of the other changes the refractive index at the surface.

On to interleukin 2 [IL-2], for which the “KD (dissociation affinity constant = kd/ka)” value (KD = kd/ka) turned out to be 5 nM. Further, under “dissociation about 400 seconds, fitted model”, the “kd (dissociation rate constant)” value came out at 0.0016 s⁻¹. Besides, the “ka (association rate constant)” value (immobilized anti-IL-2 antibody as ligand, fitted model) was 320000 M⁻¹ s⁻¹.
